Sequences of proteins named here, by UniProt entry; tags and fusion partners are left off.
UniProt P04049, whole entry Y340E/Y341E: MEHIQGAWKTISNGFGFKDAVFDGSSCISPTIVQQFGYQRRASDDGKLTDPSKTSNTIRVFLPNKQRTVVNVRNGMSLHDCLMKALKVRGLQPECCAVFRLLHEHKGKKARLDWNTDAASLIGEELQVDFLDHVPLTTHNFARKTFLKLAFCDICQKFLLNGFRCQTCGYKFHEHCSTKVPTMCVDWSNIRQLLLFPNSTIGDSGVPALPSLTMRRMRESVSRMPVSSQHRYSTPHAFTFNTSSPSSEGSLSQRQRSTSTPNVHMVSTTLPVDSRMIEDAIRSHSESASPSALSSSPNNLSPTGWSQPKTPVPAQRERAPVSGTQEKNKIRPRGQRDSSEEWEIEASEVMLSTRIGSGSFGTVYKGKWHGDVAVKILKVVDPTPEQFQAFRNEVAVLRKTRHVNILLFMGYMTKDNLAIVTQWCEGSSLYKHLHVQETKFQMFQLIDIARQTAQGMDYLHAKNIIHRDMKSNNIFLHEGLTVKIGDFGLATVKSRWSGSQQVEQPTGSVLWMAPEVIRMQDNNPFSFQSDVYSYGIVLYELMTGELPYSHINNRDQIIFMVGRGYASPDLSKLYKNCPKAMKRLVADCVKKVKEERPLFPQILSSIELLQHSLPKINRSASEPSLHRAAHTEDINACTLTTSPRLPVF

In patent publication US9694016B2 (Novartis AG, priority 2013, dated 2017):

Target: C-Raf FL (full-length C-Raf protein, Y340E and Y341E activating mutations) (Homo sapiens (Human), UniProt P04049, Y340E/Y341E)
Format: biochemical
Conditions: Table 2; AlphaScreen, 1 hour reaction; read-out: c-Raf FL IC-50

Structure (SMILES)	IC50 [nM]
Cc1ccc(NC(=O)c2cnnc(C(C)(C)C#N)c2)cc1-c1cc(N2CCOCC2)c(=O)n(C)c1 [Example 360, 6-(2-cyanopropan-2-yl)-N-(4-methyl-3-(1-methyl-5-morpholino-6-oxo-1,6-dihydropyridin-3-yl)phenyl)pyridazine-4-carboxamide]	1.3
Cc1ccc(NC(=O)c2cc(C(F)(F)F)ccn2)cc1-c1cc(N2CCOCC2)c(=O)n(C)c1 [Example 364, N-(4-methyl-3-(1-methyl-5-morpholino-6-oxo-1,6-dihydropyridin-3-yl)phenyl)-4-(trifluoromethyl)picolinamide]	0.5
Cc1ccc(NC(=O)c2cn(C)nc2C)cc1-c1cc(N2CCOCC2)c(=O)n(C)c1 [Example 366, 1,3-dimethyl-N-(4-methyl-3-(1-methyl-5-morpholino-6-oxo-1,6-dihydropyridin-3-yl)phenyl)-1H-pyrazole-4-carboxamide]	16.7
Cc1ccc(NC(=O)c2cc(C3CC3)nn2C)cc1-c1cc(N2CCOCC2)c(=O)n(C)c1 [Example 368, 3-cyclopropyl-1-methyl-N-(4-methyl-3-(1-methyl-5-morpholino-6-oxo-1,6-dihydropyridin-3-yl)phenyl)-1H-pyrazole-5-carboxamide]	2.5
Cc1ccc(NC(=O)c2cc(C(F)(F)F)nn2C)cc1-c1cc(N2CCOCC2)c(=O)n(C)c1 [Example 369, 1-methyl-N-(4-methyl-3-(1-methyl-5-morpholino-6-oxo-1,6-dihydropyridin-3-yl)phenyl)-3-(trifluoromethyl)-1H-pyrazole-5-carboxamide]	12.7
Cc1ccc(NC(=O)c2cc(C(C)C)on2)cc1-c1cc(N2CCOCC2)c(=O)n(C)c1 [Example 371, 5-isopropyl-N-(4-methyl-3-(1-methyl-5-morpholino-6-oxo-1,6-dihydropyridin-3-yl)phenyl)isoxazole-3-carboxamide]	0.2
Cc1ccc(NC(=O)c2cc(C3CC3)on2)cc1-c1cc(N2CCOCC2)c(=O)n(C)c1 [Example 372, 5-cyclopropyl-N-(4-methyl-3-(1-methyl-5-morpholino-6-oxo-1,6-dihydropyridin-3-yl)phenyl)isoxazole-3-carboxamide]	0.2
Cc1nn(C)cc1C(=O)Nc1cnc(C)c(-c2cc(N3CCOCC3)c(=O)n(C)c2)c1 [Example 374, N-(1′,2-dimethyl-5′-morpholino-6′-oxo-1′,6′-dihydro-[3,3′-bipyridin]-5-yl)-1,3-dimethyl-1H-pyrazole-4-carboxamide]	600
Cc1cc(C(=O)Nc2cnc(C)c(-c3cc(N4CCOCC4)c(=O)n(C)c3)c2)n(C)n1 [Example 376, N-(1′,2-dimethyl-5′-morpholino-6′-oxo-1′,6′-dihydro-[3,3′-bipyridin]-5-yl)-1,3-dimethyl-1H-pyrazole-5-carboxamide]	700
Cc1ncc(NC(=O)c2cc(C(C)C)on2)cc1-c1cc(N2CCOCC2)c(=O)n(C)c1 [Example 379, N-(1′,2-dimethyl-5′-morpholino-6′-oxo-1′,6′-dihydro-[3,3′-bipyridin]-5-yl)-5-isopropylisoxazole-3-carboxamide]	1.4
Cc1ncc(NC(=O)c2cc(C3CC3)on2)cc1-c1cc(N2CCOCC2)c(=O)n(C)c1 [Example 380, 5-cyclopropyl-N-(1′,2-dimethyl-5′-morpholino-6′-oxo-1′,6′-dihydro-[3,3′-bipyridin]-5-yl)isoxazole-3-carboxamide]	2.6
Cc1ncc(NC(=O)c2cc(C(F)(F)F)nn2C)cc1-c1cc(N2CCOCC2)c(=O)n(C)c1 [Example 382, N-(1′,2-dimethyl-5′-morpholino-6′-oxo-1′,6′-dihydro-[3,3′-bipyridin]-5-yl)-1-methyl-3-(trifluoromethyl)-1H-pyrazole-5-carboxamide]	300
Cc1nc(C(=O)Nc2cnc(C)c(-c3cc(N4CCOCC4)c(=O)n(C)c3)c2)c(C)o1 [Example 383, N-(1′,2-dimethyl-5′-morpholino-6′-oxo-1′,6′-dihydro-[3,3′-bipyridin]-5-yl)-2,5-dimethyloxazole-4-carboxamide]	200
Cc1ncc(NC(=O)c2ccnc(C(F)(F)F)c2)cc1-c1cc(N2CCOCC2)c(=O)n(C)c1 [Example 390, N-(1′,2-dimethyl-5′-morpholino-6′-oxo-1′,6′-dihydro-[3,3′-bipyridin]-5-yl)-2-(trifluoromethyl)isonicotinamide]	1.4
Cc1ncc(NC(=O)c2ccnc(C(C)(F)F)c2)cc1-c1cc(N2CCOCC2)c(=O)n(C)c1 [Example 391, 2-(1,1-difluoroethyl)-N-(1′,2-dimethyl-5′-morpholino-6′-oxo-1′,6′-dihydro-[3,3′-bipyridin]-5-yl)isonicotinamide]	4.5
Cc1ncc(NC(=O)c2ccnc(C(F)F)c2)cc1-c1cc(N2CCOCC2)c(=O)n(C)c1 [Example 392, 2-(difluoromethyl)-N-(1′,2-dimethyl-5′-morpholino-6′-oxo-1′,6′-dihydro-[3,3′-bipyridin]-5-yl)isonicotinamide]	3.9
Cc1ncc(NC(=O)c2cccc(C(C)(F)F)c2)cc1-c1cc(N2CCOCC2)c(=O)n(C)c1 [Example 393, 3-(1,1-difluoroethyl)-N-(1′,2-dimethyl-5′-morpholino-6′-oxo-1′,6′-dihydro-[3,3′-bipyridin]-5-yl)benzamide]	1.3
CCOc1cccc(C(=O)Nc2cnc(C)c(-c3cc(N4CCOCC4)c(=O)n(C)c3)c2)c1 [Example 397, N-(1′,2-dimethyl-5′-morpholino-6′-oxo-1′,6′-dihydro-[3,3′-bipyridin]-5-yl)-3-ethoxybenzamide]	3.4
Cc1ncc(NC(=O)c2cccc(OC(C)C)c2)cc1-c1cc(N2CCOCC2)c(=O)n(C)c1 [Example 398, N-(1′,2-dimethyl-5′-morpholino-6′-oxo-1′,6′-dihydro-[3,3′-bipyridin]-5-yl)-3-isopropoxybenzamide]	3.1
Cc1ncc(NC(=O)c2ccnc(C(C)(C)C)c2)cc1-c1cc(N2CCOCC2)c(=O)n(C)c1 [Example 399, 2-(tert-butyl)-N-(1′,2-dimethyl-5′-morpholino-6′-oxo-1′,6′-dihydro-[3,3′-bipyridin]-5-yl)isonicotinamide]	14.8
Cc1ncc(NC(=O)c2ccnc(C(C)C)c2)cc1-c1cc(N2CCOCC2)c(=O)n(C)c1 [Example 400, N-(1′,2-dimethyl-5′-morpholino-6′-oxo-1′,6′-dihydro-[3,3′-bipyridin]-5-yl)-2-isopropylisonicotinamide]	3.3
Cn1cc(-c2cc(NC(=O)c3ccnc(C(F)(F)F)c3)cnc2Cl)cc(N2CCOCC2)c1=O [Example 404, N-(2-chloro-1′-methyl-5′-morpholino-6′-oxo-1′,6′-dihydro-[3,3′-bipyridin]-5-yl)-2-(trifluoromethyl)isonicotinamide]	1.2

The remaining compounds from weak to strong by IC50, led by results:

IC50 [nM]	Structure (SMILES)
200	CCn1cc(C(=O)Nc2cnc(C)c(-c3cc(N4CCOCC4)c(=O)n(C)c3)c2)c(C)n1 [Example 373, N-(1′,2-dimethyl-5′-morpholino-6′-oxo-1′,6′-dihydro-[3,3′-bipyridin]-5-yl)-1-ethyl-3-methyl-1H-pyrazole-4-carboxamide]
61.9	Cc1ncc(NC(=O)c2cc(C3CC3)nn2C)cc1-c1cc(N2CCOCC2)c(=O)n(C)c1 [Example 377, 3-cyclopropyl-N-(1′,2-dimethyl-5′-morpholino-6′-oxo-1′,6′-dihydro-[3,3′-bipyridin]-5-yl)-1-methyl-1H-pyrazole-5-carboxamide]
43.4	Cc1nn(C(C)C)cc1C(=O)Nc1cnc(C)c(-c2cc(N3CCOCC3)c(=O)n(C)c2)c1 [Example 375, N-(1′,2-dimethyl-5′-morpholino-6′-oxo-1′,6′-dihydro-[3,3′-bipyridin]-5-yl)-1-isopropyl-3-methyl-1H-pyrazole-4-carboxamide]
25.5	Cc1cc(C(=O)Nc2ccc(C)c(-c3cc(N4CCOCC4)c(=O)n(C)c3)c2)n(C)n1 [Example 381, 1,3-dimethyl-N-(4-methyl-3-(1-methyl-5-morpholino-6-oxo-1,6-dihydropyridin-3-yl)phenyl)-1H-pyrazole-5-carboxamide]
14.1	Cc1ncc(NC(=O)c2cccc(C(C)(C)C#N)c2)cc1-c1cc(N2CCOCC2)c(=O)n(C)c1 [Example 389, 3-(2-cyanopropan-2-yl)-N-(1′,2-dimethyl-5′-morpholino-6′-oxo-1′,6′-dihydro-[3,3′-bipyridin]-5-yl)benzamide]
12.3	CCN1CCN(c2cc(C(=O)Nc3cnc(C)c(-c4cc(N5CCOCC5)c(=O)n(C)c4)c3)cc(C(F)(F)F)c2)CC1 [Example 402, N-(1′,2-dimethyl-5′-morpholino-6′-oxo-1′,6′-dihydro-[3,3′-bipyridin]-5-yl)-3-(4-ethylpiperazin-1-yl)-5-(trifluoromethyl)benzamide]
5	Cc1ncc(NC(=O)c2ccc(F)c(OC(C)C)c2)cc1-c1cc(N2CCOCC2)c(=O)n(C)c1 [Example 396, N-(1′,2-dimethyl-5′-morpholino-6′-oxo-1′,6′-dihydro-[3,3′-bipyridin]-5-yl)-4-fluoro-3-isopropoxybenzamide]
3	Cc1ccc(NC(=O)c2cn(C(C)C)nc2C)cc1-c1cc(N2CCOCC2)c(=O)n(C)c1 [Example 367, 1-isopropyl-3-methyl-N-(4-methyl-3-(1-methyl-5-morpholino-6-oxo-1,6-dihydropyridin-3-yl)phenyl)-1H-pyrazole-4-carboxamide]
2.2	CCOc1cc(C(=O)Nc2cnc(C)c(-c3cc(N4CCOCC4)c(=O)n(C)c3)c2)ccc1F [Example 395, N-(1′,2-dimethyl-5′-morpholino-6′-oxo-1′,6′-dihydro-[3,3′-bipyridin]-5-yl)-3-ethoxy-4-fluorobenzamide]
1	Cc1ncc(NC(=O)c2cccc(C(F)F)c2)cc1-c1cc(N2CCOCC2)c(=O)n(C)c1 [Example 394, 3-(difluoromethyl)-N-(1′,2-dimethyl-5′-morpholino-6′-oxo-1′,6′-dihydro-[3,3′-bipyridin]-5-yl)benzamide]
0.8	Cc1ccc(NC(=O)c2cnnc(C(C)(C)F)c2)cc1-c1cc(N2CCOCC2)c(=O)n(C)c1 [Example 363, 6-(2-fluoropropan-2-yl)-N-(4-methyl-3-(1-methyl-5-morpholino-6-oxo-1,6-dihydropyridin-3-yl)phenyl)pyridazine-4-carboxamide]
